Laboratory results as given in ChEMBL document CHEMBL4038329, “Side-Chain Modified Ergosterol and Stigmasterol Derivatives as Liver X Receptor Agonists” (J Med Chem, 2017).

Amino acid sequences for entries named in this document (tags omitted).
UniProt Q13133, whole entry: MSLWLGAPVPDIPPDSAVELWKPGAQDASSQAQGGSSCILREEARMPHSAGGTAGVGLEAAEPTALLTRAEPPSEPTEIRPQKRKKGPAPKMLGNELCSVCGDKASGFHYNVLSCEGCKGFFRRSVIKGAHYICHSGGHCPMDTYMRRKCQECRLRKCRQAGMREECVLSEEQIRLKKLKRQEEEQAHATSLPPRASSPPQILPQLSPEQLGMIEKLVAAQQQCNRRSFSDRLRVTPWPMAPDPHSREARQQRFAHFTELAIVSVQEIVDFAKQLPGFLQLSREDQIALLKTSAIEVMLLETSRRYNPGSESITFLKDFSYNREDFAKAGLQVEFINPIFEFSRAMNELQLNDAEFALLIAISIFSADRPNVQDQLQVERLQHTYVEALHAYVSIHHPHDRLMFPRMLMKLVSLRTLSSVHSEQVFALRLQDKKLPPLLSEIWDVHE
UniProt P55055, whole entry: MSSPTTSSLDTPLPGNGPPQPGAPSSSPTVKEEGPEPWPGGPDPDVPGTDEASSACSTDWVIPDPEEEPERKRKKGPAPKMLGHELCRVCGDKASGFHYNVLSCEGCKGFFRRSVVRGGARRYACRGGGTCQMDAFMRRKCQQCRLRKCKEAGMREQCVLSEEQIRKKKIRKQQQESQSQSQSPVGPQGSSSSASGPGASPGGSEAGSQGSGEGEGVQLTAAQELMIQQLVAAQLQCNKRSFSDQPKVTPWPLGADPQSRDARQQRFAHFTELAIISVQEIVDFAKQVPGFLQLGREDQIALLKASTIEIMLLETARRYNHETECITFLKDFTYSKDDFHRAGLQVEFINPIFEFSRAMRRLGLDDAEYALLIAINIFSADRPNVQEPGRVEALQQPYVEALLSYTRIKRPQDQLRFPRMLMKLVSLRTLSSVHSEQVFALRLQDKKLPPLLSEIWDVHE

Tests used:
[1] = biological target: Oxysterols receptor LXR-alpha (Homo sapiens, UniProt Q13133); experiment: Activation of GAL4 fused human LXR alpha expressed in HEK293 cells after 24 hrs by luciferase reporter gene assay relative to 22R-HC; type: cell-based
Method in brief: (§1)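 HEK293 cells carrying the Gal4-LXR-α or Gal4-LXR-β chimera plus the pMH100X4-TK-luc and Renilla reporters. Treatment started 6 h post-transfection and ran 24 h. Dual luciferase read-out. Efficacy is given as % of the response to 8 μM 22R-HC, ± SD, from three to five independent experiments.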

[2] = biological target: Oxysterols receptor LXR-beta (Homo sapiens, UniProt P55055); experiment: Activation of GAL4 fused human LXR beta expressed in HEK293 cells after 24 hrs by luciferase reporter gene assay relative to 22R-HC; type: cell-based; method in brief: as §1

Structure (SMILES) | Efficacy [1] [%] | Efficacy [2] [%]
CC[C@@H](C(C)C)[C@H](O)C[C@@H](C)[C@H]1CC[C@H]2[C@@H]3CC=C4C[C@@H](O)CC[C@]4(C)[C@H]3CC[C@]12C | 489 | 115
CC[C@H](C[C@@H](O)[C@@H](C)[C@H]1CC[C@H]2[C@@H]3CC=C4C[C@@H](O)CC[C@]4(C)[C@H]3CC[C@]12C)C(C)C | 208 | 90.8
CC(C)[C@@H](C)C[C@H](O)[C@@H](C)[C@H]1CC[C@H]2C3=CC=C4C[C@@H](O)CC[C@]4(C)[C@H]3CC[C@]12C | 74.7 | 41.9
